Results from ChEMBL document CHEMBL1142040, “Melanocortin subtype-4 receptor agonists containing a piperazine core with substituted aryl sulfonamides” (Bioorg Med Chem Lett, 2005).

Sequences of proteins named here, by UniProt entry; tags and fusion partners are left off. A change or cut given only in a name is not applied to a line headed by its entry.
UniProt P32245, whole entry, looked up: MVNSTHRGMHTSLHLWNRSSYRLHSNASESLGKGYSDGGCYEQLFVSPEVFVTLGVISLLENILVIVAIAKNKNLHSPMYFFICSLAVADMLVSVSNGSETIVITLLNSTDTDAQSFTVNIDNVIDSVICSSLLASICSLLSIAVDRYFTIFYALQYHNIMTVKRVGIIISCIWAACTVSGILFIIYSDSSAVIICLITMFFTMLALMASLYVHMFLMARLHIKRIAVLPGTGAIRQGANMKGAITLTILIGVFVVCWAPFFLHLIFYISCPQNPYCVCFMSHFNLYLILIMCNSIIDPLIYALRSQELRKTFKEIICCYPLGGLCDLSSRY
UniProt P33032: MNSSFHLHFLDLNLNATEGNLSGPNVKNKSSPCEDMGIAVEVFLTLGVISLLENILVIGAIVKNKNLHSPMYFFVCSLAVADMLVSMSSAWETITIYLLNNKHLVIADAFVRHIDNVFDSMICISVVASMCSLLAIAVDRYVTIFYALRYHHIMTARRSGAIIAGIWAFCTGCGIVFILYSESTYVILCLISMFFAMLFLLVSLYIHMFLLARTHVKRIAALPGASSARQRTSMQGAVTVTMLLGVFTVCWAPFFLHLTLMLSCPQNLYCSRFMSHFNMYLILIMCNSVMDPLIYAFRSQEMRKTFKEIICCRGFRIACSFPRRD

Biological target: Melanocortin receptor (M4 and M5) (Homo sapiens) (UniProt P32245+P33032)
Test: Selectivity for melanocortin 4 receptor compared to melanocortin 5 receptor in vitro
Format: functional

Compound: CCCN(c1ccccc1N1CCN(C(=O)[C@@H](Cc2ccc(Cl)cc2)NC(=O)[C@@H]2Cc3ccccc3CN2)CC1)S(C)(=O)=O
- Selectivity: 490
